This test concerns tubulin. The conditions noted are these: 5 µM compound; purified tubulin 7.2 µM, GTP, 37°C, 0.5% DMSO.

Consider `COc1cc2c(c(OC)c1OC)-c1ccc(OC)c(=O)cc1[C@@H](NC(=O)CCCCCNC(=O)COc1ccc(/C=C/C3=[N+]4C(=Cc5ccc(-c6ccc[nH]6)n5[B-]4(F)F)C=C3)cc1)CC2` [colchicine-646], for which the “Inhibition of tubulin polymerization” value is recorded as “weak inhibition”.
